Laboratory results: ChEMBL document CHEMBL5505978, “Novel estrogen receptor β/histone deacetylase dual-targeted near-infrared fluorescent probes as theranostic agents for imaging and treatment of prostate cancer” (Eur J Med Chem, 2024)

Sequences of proteins named here, by UniProt entry; tags and fusion partners are left off.
UniProt Q92731, whole entry: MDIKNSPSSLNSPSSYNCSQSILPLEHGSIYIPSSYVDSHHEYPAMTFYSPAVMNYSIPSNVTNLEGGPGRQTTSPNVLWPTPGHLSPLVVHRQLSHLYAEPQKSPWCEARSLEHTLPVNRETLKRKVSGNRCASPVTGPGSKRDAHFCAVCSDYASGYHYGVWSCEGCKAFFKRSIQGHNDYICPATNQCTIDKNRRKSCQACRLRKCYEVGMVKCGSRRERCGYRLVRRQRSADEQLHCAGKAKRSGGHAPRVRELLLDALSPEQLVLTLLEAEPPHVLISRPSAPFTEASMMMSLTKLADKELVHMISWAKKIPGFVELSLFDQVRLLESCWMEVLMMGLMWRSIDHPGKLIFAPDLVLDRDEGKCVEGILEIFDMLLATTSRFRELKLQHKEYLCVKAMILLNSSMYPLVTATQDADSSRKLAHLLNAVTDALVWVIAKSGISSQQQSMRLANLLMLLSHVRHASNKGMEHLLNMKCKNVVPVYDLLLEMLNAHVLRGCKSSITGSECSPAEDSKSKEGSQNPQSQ

Experiments:
[1] = Selectivity ratio of relative binding affinity for ERbeta (unknown origin) to relative binding affinity to ERalpha (unknown origin)
[2] = target: Estrogen receptor beta (Homo sapiens) (UniProt Q92731); test: Binding affinity to ERbeta (unknown origin) assessed as relative binding affinity incubated for 2 hrs under dark condition by fluorescence polarization assay relative to control

Row | Compound | Selectivity ratio [1] | RBA [2] [%]
1 | N#CC(C#N)=C1C=C(/C=C/c2ccc(O)c(NC(=O)CCCCCCC(=O)NO)c2)Oc2ccccc21 | 45 | 
2 | N#CC(C#N)=C1C=C(/C=C/c2ccc(O)cc2)Oc2ccc(O)cc21 | 1.17 | 1.61
3 | N#CC(C#N)=C1C=C(/C=C/c2ccc(O)c(NC(=O)CCCCCCC(=O)NO)c2)Oc2ccc(O)cc21 | 34 | 0.444
